# In PubChem BioAssay AID2094 (Broad Institute, 2009):
# The list shows a part of the results, in another mix than the full data. Active and inactive are the calls of the source. No stated cut-off is given here; in the data, active means activity change below about -75% (passing the limit was not always enough); inconclusive means no clear call, values can overlap the other calls.
# Assay: Vibrio harveyi AI-2 quorum sensing modulators, primary screen, JMH597 strain, luminescence/OD600 ratio (AID 2094);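 further: luminescence divided by OD600 gain over 9 h not by final OD600 alone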
# Conditions: Vibrio harveyi JMH597 AI-2 luminescence/OD600 ratio, 9 h; at 7.5 µM; hits give low values; 0 = neutral-control median; strain lacks LuxN and CqsS sensors
row,SMILES,activity change
1,Nc1cc(N)c2nonc2c1[N+](=O)[O-],inactive: 8.11%
2,CC(C)CC(=O)NC(Sc1ccc(Cl)cc1)C(Cl)(Cl)Cl (configuration not stated),inactive: 12.9%
3,Oc1ccccc1CNc1ccccn1,inactive: 30.7%
4,O=C(NC(Sc1ccncn1)C(Cl)(Cl)Cl)c1ccccc1 (configuration not stated),inactive: 19.1%
5,Cc1c2non([O-])c-2c(C)[n+](=O)[n+]1[O-],inactive: -2.95%
6,NC(=O)c1cc([N+](=O)[O-])cc([N+](=O)[O-])c1N,inactive: 36.9%
7,Cc1ccc(N/C(=N/P(=O)(N2CCOCC2)N2CCOCC2)N2CCOCC2)cc1,inactive: 7.07%
8,COc1ccccc1OP(=O)(Nc1ccc(C)cn1)Oc1ccccc1OC,inactive: 14.3%
9,Cc1ccc(OP(=O)(Nc2nccs2)Oc2ccc(C)cc2)cc1,inactive: 4.31%
10,CN1CCCC(OC(=O)C(c2ccccc2)c2ccccc2)C1 (configuration not stated),inactive: 21.5%
11,Clc1ccc(Cl)c(NC2=NCC(CBr)S2)c1 (configuration not stated),inactive: 9.07%
12,O=[N+]([O-])c1cc([N+](=O)[O-])c(CCN2CCOCC2)c([N+](=O)[O-])c1,inactive: 44.3%
13,CCN(N=Nc1nonc1N)c1nonc1N,inactive: 16.7%
14,Nc1cccc2ccc([As](=O)(O)O)cc12,inactive: 26.6%
15,CC(=O)Nc1ccc([As](=O)(O)O)cc1,inactive: 6.35%
16,O=C(O)c1ccccc1[As](=O)(O)O,inactive: 9.6%
17,O=P(Nc1nc2ccc(Cl)cc2s1)(c1ccccc1)c1ccccc1,inactive: -6.17%
18,Cc1cc(SC(NC(=O)c2ccc(F)cc2)C(Cl)(Cl)Cl)ncn1 (configuration not stated),inactive: 27.4%
19,CCOP(=O)(Nc1ccccc1)OCC,inactive: -2.99%
20,Cc1ccc(NP(=O)(Oc2ccccc2F)Oc2ccccc2F)nc1,inactive: 8.79%
21,CN(C(=O)Cc1ccc(Cl)c(Cl)c1)[C@H]1CCCC[C@@H]1N1CCCC1,inactive: -3.61%
22,CC(C)(C)C(=O)NC(Sc1ccncn1)C(Cl)(Cl)Cl (configuration not stated),inactive: 2.16%
23,O=[N+]([O-])c1ncn(CCn2ncnc2[N+](=O)[O-])n1,inactive: 0.6%
24,O=[N+]([O-])c1cccc(NC2=NCC(CBr)S2)c1 (configuration not stated),inactive: 3.3%
25,O=C(O)CNc1ccc([As](=O)(O)O)cc1,inactive: 12.2%
26,O=C(Nc1cc([As](=O)(O)O)ccc1O)c1ccccc1,inactive: 10.3%

row,SMILES,activity change
1,Nc1ccc([As](=O)(O)c2ccc(N)cc2)cc1,inactive: 13.7%
2,C[N+]1=C2C=CC=CC=C2SC12C([N+](=O)[O-])=CC([N+](=O)[O-])=C[C-]2[N+](=O)[O-] (configuration not stated),inactive: -52%
3,CCN(/C(=N/P(=O)(N1CCOCC1)N1CCOCC1)N1CCOCC1)c1ccc(OC)cc1,inactive: 34.1%
4,CC(C)=N/N=C(\N)N[N+](=O)[O-],inactive: 19.1%
5,CN(C)C(=O)OCCc1n(C)cc[n+]1C,inactive: 7.24%
6,CC1CCN(C(=O)Oc2c(Cl)cc(Cl)c3cccnc23)CC1,inactive: 19.6%
7,COc1ccc(C2=NCC(CBr)S2)cc1 (configuration not stated),inactive: 7.88%
8,O=[N+]([O-])c1cccc2n[nH]nc12,inactive: 30.7%
9,CC(=O)N1C2C3N(C(C)=O)C1C1N(C(C)=O)C(C(N1C(C)=O)N3C(C)=O)N2C(C)=O,inactive: -5.05%
10,Cc1ccc(NP(=O)(Oc2ccccc2)Oc2ccccc2)nc1,inactive: -9.18%
11,CCc1nc2c(n1)c1c(non1O)c1c2no[n+]1[O-],inactive: 20.2%
12,O=[N+]([O-])c1cc([N+](=O)[O-])c(CCNc2ccccc2)c([N+](=O)[O-])c1,inactive: 19.7%
13,CC(C)C(=O)NC(Sc1ccccc1)C(Cl)(Cl)Cl (configuration not stated),inactive: 17.8%
14,O=P(Nc1nccs1)(c1ccccc1)c1ccccc1,inactive: -2.46%
15,c1nnnn1CCn1cnnn1,inactive: 23.5%
16,CC(=O)NC(SC(=S)N(C)C)C(Cl)(Cl)Cl (configuration not stated),inactive: 26.6%
17,O=[N+]([O-])c1ncn(CCn2cnc([N+](=O)[O-])n2)n1,inactive: 7.52%
18,O=[As](O)(c1ccccc1)c1ccc(O)cc1,inactive: 9.85%
19,C(Cc1nn[nH]n1)Cc1nn[nH]n1,inactive: 5.15%
20,Nc1ccc([As](=O)(O)c2ccc([N+](=O)[O-])cc2)cc1,inactive: 6.45%
21,O=C(OC1CN2CCC1CC2)c1cccc(Cl)c1 (configuration not stated),inactive: 16.3%
22,O=P(Nc1ccccn1)(c1ccc(Br)cc1)c1ccc(Br)cc1,inactive: 40.6%
23,CN(C)C1(CNC(=O)c2ccc(Cl)c(S(N)(=O)=O)c2)CCCCC1,inactive: 10.6%
24,O=P(Nc1nc2ccccc2s1)(c1ccccc1)c1ccccc1,inactive: 27.3%
25,C[C@H]1OP(=O)(Oc2ccccc2)[C@H](O)[C@H](O)[C@H]1N=[N+]=[N-] (some centres not stated),inactive: 13%
26,COC(=O)c1cc2c(s1)N=C(c1ccccc1)N(C)P2(=O)N1CCOCC1 (configuration not stated),inactive: 15.7%

row,SMILES,activity change
1,CC(=O)NC(SC(=S)N(CC(C)C)CC(C)C)C(Cl)(Cl)Cl (configuration not stated),inactive: 16%
2,Cc1ccc(OP(=O)(Nc2ccccn2)Oc2ccc(C)cc2)cc1,inactive: 17.6%
3,O=C(OC1CN2CCC1CC2)c1ccccc1 (configuration not stated),inactive: 17.5%
4,CCC(=O)N1C2C3N(C(=O)CC)C1C1N(C(=O)CC)C(C(N1C(=O)CC)N3C(=O)CC)N2C(=O)CC,inactive: 20.2%
5,Cc1ccccc1OP(=O)(Nc1ccccn1)Oc1ccccc1C,inactive: 7.72%
6,CN(C)C(=O)Oc1noc2ccccc12,inactive: 4%
7,CCNC(=S)/N=C(\N)N[N+](=O)[O-],inactive: 7.22%
8,O=C(NC1CCS(=O)(=O)C1)NP(=S)(Oc1ccccc1)Oc1ccccc1 (configuration not stated),inactive: 9.26%
9,c1ccc(-c2nn[nH]n2)c(-c2nn[nH]n2)c1,inactive: 3.14%
10,Cc1ccc(NP(=O)(Oc2cccc(C)c2)Oc2cccc(C)c2)nc1,inactive: 7.36%
11,CCOC(=O)NC(Sc1ccccc1)C(Cl)(Cl)Cl (configuration not stated),inactive: 2.12%
12,CC(=O)c1ccc(N2CC2c2ccncc2)cc1 (configuration not stated),inactive: 7.41%
13,C[C@H]1OP(=O)(Oc2ccccc2)C[C@@H]2O[C@@H]21 (some centres not stated),inactive: 21.5%
14,C[C@@H]1C=CCP(=O)(Oc2ccccc2)O1 (some centres not stated),inactive: 14.7%
15,CC(=O)Nc1ccc([As](=O)(O)O)c(O)c1,inactive: 19.1%
16,CC(=O)Nc1ccc(Oc2c([N+](=O)[O-])cc([N+](=O)[O-])cc2[N+](=O)[O-])cc1,inactive: 30.5%
17,O=P1(Nc2nc3ccc(Cl)cc3s2)COc2ccccc2O1 (configuration not stated),inactive: -7.59%
18,CCOc1ccc(C2=NCC(CBr)S2)cc1 (configuration not stated),inactive: 19.6%
19,CC(C)(C)C(=O)NC(Sc1ccccc1)C(Cl)(Cl)Cl (configuration not stated),inactive: 11.8%
20,CCCOP(=S)(Nc1nc(N)cc(=O)[nH]1)OCCC,inactive: 13.6%
21,Cc1ccc(NCCc2c([N+](=O)[O-])cc([N+](=O)[O-])cc2[N+](=O)[O-])cc1,inactive: 19.1%
22,Nc1cccc2c([As](=O)(O)O)cccc12,inactive: 29.9%
23,COc1cc(C2NCCC3(OCCO3)C2(C)C)cc(OC)c1OC (configuration not stated),inactive: 3.1%
24,CCOP(=O)(Nc1cccc2ccccc12)OCC,inactive: 9.1%
25,O=[As](O)(O)c1cccnc1,inactive: 8.27%
26,COc1cc(C(=O)NCC2(N3CCOCC3)CCCCC2)cc(Cl)c1OC(C)C,inactive: 24.1%

row,SMILES,activity change
1,CS(=O)(=O)c1ccc(Cl)c(NC(=O)COC(=O)C(O)(c2ccccc2)c2ccccc2)c1,inactive: 24.8%
2,O=C(OC1CN2CCC1CC2)c1ccc(Cl)cc1 (configuration not stated),inactive: 13.6%
3,Cc1cccc(OCC(=O)OC2CN3CCC2CC3)c1 (configuration not stated),inactive: 11.7%
4,O=[As](O)(c1cccc(O)c1)c1cccc(O)c1,inactive: -6.08%
5,NC(=O)Nc1ccc([As](=O)(O)O)cc1,inactive: 9.61%
6,O=[N+]([O-])c1ccc2c(c1)nnn2O,inactive: 10%
7,CN(C)C(=O)c1cc([N+](=O)[O-])cc2c1-c1c(cc([N+](=O)[O-])cc1[N+](=O)[O-])C2=O,inactive: 63.2%
8,CN(C(=O)Cc1ccc(Cl)c(Cl)c1)[C@H]1CC[C@@]2(CCCO2)C[C@@H]1N1CCCC1,inactive: -6.63%
9,N#CCCN(C(=O)COC(=O)C(O)(c1ccccc1)c1ccccc1)c1ccc(F)cc1,inactive: 26.3%
10,CCOP1(=S)c2c(C)nn(CCC#N)c2N=C(c2ccc(F)cc2)N1C (configuration not stated),inactive: 12.6%
11,CN(C(=O)Cc1ccccc1)[C@@H]1CC[C@]2(CCCO2)C[C@H]1N1CCCC1,inactive: 7.91%
12,CS(=O)(=O)c1cc([N+](=O)[O-])c2no[n+]([O-])c2c1,inactive: 28.6%
13,CCOP1(=S)c2c(C)nn(CCC#N)c2N=C(c2ccccc2F)N1C (configuration not stated),inactive: 8.37%
14,O=P(Nc1nccs1)(Oc1ccccc1)Oc1ccccc1,inactive: 18.6%
15,O=P(Nc1nccs1)(c1ccccc1)c1nc2ccccc2s1 (configuration not stated),inactive: 27.9%
16,Nc1ccccc1[As](=O)(O)c1ccccc1,inactive: 20.1%
17,O=C(O)COc1ccc([As](=O)(O)O)cc1[N+](=O)[O-],inactive: -10.8%
18,O=P1(Nc2ncccn2)COc2ccccc2OC1,inactive: 27.3%
19,Cc1ccc(OCC(=O)OC2CN3CCC2CC3)cc1 (configuration not stated),inactive: 31%
20,O=[As](O)(c1cccs1)c1cccs1,inactive: 20.5%
21,O=P1(Nc2ccc(Br)cn2)COc2ccccc2OC1,inactive: 28.4%
22,Nc1cccc([As](=O)(O)c2ccccc2)c1,inactive: 20.2%
23,Cc1nn(-c2ccccc2)c2c1P(=O)(N1CCOCC1)N(C)C(c1ccccc1)=N2 (configuration not stated),inactive: 15.6%
24,CC1CCC(C(C)C)C(OP(=O)(Nc2ccccn2)c2ccccc2)C1 (configuration not stated),inactive: 18%
